Data on 64 compounds can be found in PubChem BioAssay AID2098 (Broad Institute, 2009).

Only a part is listed here, and it is no random draw. Activity calls are given as the source filed them.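 How the source made its calls: active means more than half of replicate wells show activity change below -50%, luminescence cut by over half; inconclusive means some wells, but at most half, below -50%; inactive means no replicate well below -50%.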

This test can be described thus: blocking HSF1-driven luciferase expression – cell-based, NIH3T3, luminescence, primary screen (AID 2098).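 Further: luciferase reports HSF-1 transcriptional activity via heat shock element; 0% = median of DMSO wells and -100% = zero luminescence signal.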 Conditions: NIH3T3-HGL HSE-luciferase, MG132-induced, luminescence 8 h; hits give low values; screened at 7.5 µM (by protocol).
Regarding `O=[As](O)(c1ccccc1Br)c1ccccc1Br`, the activity change, negative = inhibition was inactive: -1.3%.
The same measure for `CC1(CBr)Cn2c(nc3ccccc3c2=O)S1` (centres undefined): inactive: 2.59%; for `CN(C(=O)Cc1ccc(Cl)c(Cl)c1)[C@@H]1CCCC[C@H]1N1CCCC1`: inactive: 8.24%; for `CC(C)/C=N\N=C(\N)N[N+](=O)[O-]`: inactive: -11.4%.
For the compound `COc1ccccc1CNC(=O)COC(=O)C(O)(c1ccccc1)c1ccccc1`, the activity change, negative = inhibition was inactive: -3.61%.
For `Clc1n[nH]nc1-c1nn[nH][15n]1`, the activity change, negative = inhibition is inactive: 1.49%.
The same measure for `CC(C)(C)C(=O)NC(Sc1ncccn1)C(Cl)(Cl)Cl` (centres undefined): inactive: 1.79%; for `CN(CCCl)Cc1cc(Cl)c(NC2=NCCN2)c(Cl)c1`: inactive: -2.27%; for `CCOP(=O)(Nc1ccc(C)cn1)OCC`: inactive: -2.99%.
The same measure for `CCC1=CC2Cc3nc4ccc(Cl)cc4c(N)c3C(C1)C2` (centres undefined): inactive: 2.3%.
The same measure for `O=P1(Nc2ccccn2)COc2ccccc2OC1`: inactive: -18.1%; for `CCOP(=O)(NC(=NC(C)c1ccccc1)NC(C)c1ccccc1)OCC` (centres undefined): inactive: -7.01%; for `Cc1ccc(OCC(=O)OC2CN3CCC2CC3)cc1` (centres undefined): inactive: -8.49%.
As for `O=[As](O)(c1cccs1)c1cccs1`, the activity change, negative = inhibition was inactive: 8.42%.
The same measure for `Nc1cccc([As](=O)(O)c2ccccc2)c1`: inactive: -5.17%; for `O=P1(Nc2ncccn2)COc2ccccc2OC1`: inactive: -5.69%.
For the compound `O=C(/C=C/c1ccccc1)OC1CN2CCC1CC2` (centres undefined), the activity change, negative = inhibition is inactive: -0.769%.
The same measure for `CN(C)C1(CNC(=O)c2ccc(S(C)(=O)=O)cc2)CCCCC1`: inactive: 3.54%; for `Cc1nn(-c2ccccc2)c2c1P(=O)(N1CCOCC1)N(C)C(c1ccccc1)=N2` (centres undefined): inactive: 3.88%; for `Cc1ccc(C(=O)OC2CN3CCC2CC3)cc1` (centres undefined): inactive: -0.423%.
The same measure for `CC1CCC(C(C)C)C(OP(=O)(Nc2ccccn2)c2ccccc2)C1` (centres undefined): inactive: 1.74%; for `CN(C)C(=O)c1cc([N+](=O)[O-])cc2c1-c1c(cc([N+](=O)[O-])cc1[N+](=O)[O-])C2=O`: inactive: 7.02%.
The same measure for `O=[N+]([O-])c1ccc2c(c1)nnn2O`: inactive: 1.47%; for `CN(C(=O)Cc1ccc(Cl)c(Cl)c1)[C@H]1CC[C@@]2(CCCO2)C[C@@H]1N1CCCC1`: inactive: 0.784%; for `N#CCCN(C(=O)COC(=O)C(O)(c1ccccc1)c1ccccc1)c1ccc(F)cc1`: inactive: -0.747%.
Regarding `CCOP1(=S)c2c(C)nn(CCC#N)c2N=C(c2ccc(F)cc2)N1C` (centres undefined), the activity change, negative = inhibition was inactive: -12.4%.
The same measure for `CN(C(=O)Cc1ccccc1)[C@@H]1CC[C@]2(CCCO2)C[C@H]1N1CCCC1`: inactive: -1.54%; for `NC(=O)Nc1ccc([As](=O)(O)O)cc1`: inactive: -1.09%.
The same measure for `O=C(O)COc1ccc([As](=O)(O)O)cc1[N+](=O)[O-]`: inactive: -5.78%.
Turning to `Nc1ccccc1[As](=O)(O)c1ccccc1`, the activity change, negative = inhibition was inactive: -0.586%.
Turning to `CS(=O)(=O)c1cc([N+](=O)[O-])c2no[n+]([O-])c2c1`, the activity change, negative = inhibition is inactive: 8.66%.
For the compound `CCOP1(=S)c2c(C)nn(CCC#N)c2N=C(c2ccccc2F)N1C` (centres undefined), the activity change, negative = inhibition is inactive: 5.87%.
For `O=P(Nc1nccs1)(c1ccccc1)c1nc2ccccc2s1` (centres undefined), the activity change, negative = inhibition was inactive: -8.7%.
The same measure for `O=P(Nc1nccs1)(Oc1ccccc1)Oc1ccccc1`: inactive: 13.2%; for `COc1cc(C2NCCC3(OCCO3)C2(C)C)cc(OC)c1OC` (centres undefined): inactive: -8.34%.
The same measure for `CCOP(=O)(Nc1cccc2ccccc12)OCC`: inactive: 1.26%; for `CCCOP(=S)(Nc1nc(N)cc(=O)[nH]1)OCCC`: inactive: -8.36%.
The same measure for `Cc1ccc(NCCc2c([N+](=O)[O-])cc([N+](=O)[O-])cc2[N+](=O)[O-])cc1`: inactive: 21.9%; for `Nc1cccc2c([As](=O)(O)O)cccc12`: inactive: -12%; for `O=[As](O)(c1cccc(O)c1)c1cccc(O)c1`: inactive: -5.19%.
Take `Cc1cccc(OCC(=O)OC2CN3CCC2CC3)c1` (centres undefined): the activity change, negative = inhibition is inactive: -11.1%.
As to `COc1cc(C(=O)NCC2(N3CCOCC3)CCCCC2)cc(Cl)c1OC(C)C`, the activity change, negative = inhibition was inactive: -0.581%.
The same measure for `O=[As](O)(O)c1cccnc1`: inactive: -3.33%; for `CS(=O)(=O)c1ccc(Cl)c(NC(=O)COC(=O)C(O)(c2ccccc2)c2ccccc2)c1`: inactive: -1.26%.
For the compound `O=C(OC1CN2CCC1CC2)c1ccc(Cl)cc1` (centres undefined), the activity change, negative = inhibition is inactive: -6.44%.
`COc1ccc(N/C(=N/P(=O)(N2CCOCC2)N2CCOCC2)N2CCOCC2)cc1`: the activity change, negative = inhibition was inactive: -4.07%.
The same measure for `COc1ccc2nc(NP(=O)(c3ccccc3)c3ccccc3)sc2c1`: inactive: 1.73%; for `COc1cc(I)ccc1[As](=O)(O)O`: inactive: -2.82%.
For the compound `O=C(OC1CN2CCC1CC2)C12CC3CC(CC(C3)C1)C2` (centres undefined), the activity change, negative = inhibition is inactive: -7.08%.
The same measure for `Cc1cc(=O)[nH]c(N[N+](=O)[O-])n1`: inactive: 4.14%; for `Cc1c2c(nc3ccccc13)SC(C(Cl)Cl)C2` (centres undefined): inactive: 15.1%; for `CCN(CC)C(=S)SC(NC=O)C(Cl)(Cl)Cl` (centres undefined): inactive: 2.89%.
The same measure for `CC(C)NC(=O)NP(=O)(Oc1ccccc1)Oc1ccccc1`: inactive: -0.307%.
For `O=[N+]([O-])c1cc([N+](=O)[O-])c(-c2ccn[nH]2)s1`, the activity change, negative = inhibition was inactive: 15.4%.
For the compound `CC(C)c1ccc(OP(=O)(Nc2ccccn2)Oc2ccccc2F)cc1` (centres undefined), the activity change, negative = inhibition was inactive: -6.5%.
The same measure for `ClCCSc1nnc(-c2cccnc2)o1`: inactive: -8.26%; for `Cc1ccc2nc3c(c(C)c2c1)CC(C(Cl)Cl)S3` (centres undefined): inactive: 12.5%; for `Cc1ccc(OP(=O)(Nc2ccc([N+](=O)[O-])cn2)Oc2ccc(C)cc2)cc1`: inactive: -0.597%.
As to `O=[As](O)(c1ccc(O)cc1)c1ccccc1O`, the activity change, negative = inhibition is inactive: -5.25%.
On to `C[As](=O)(O)c1cccc(C(=O)O)c1`, for which the activity change, negative = inhibition was inactive: -8.4%.
The same measure for `O=[N+]([O-])c1ccc(Nc2ccc(Oc3ccc([N+](=O)[O-])cc3[N+](=O)[O-])cc2)c([N+](=O)[O-])c1`: inactive: 3.68%; for `Cc1cc(SC(NC=O)C(Cl)(Cl)Cl)ncn1` (centres undefined): inactive: -1.37%; for `O=P(Nc1ccccn1)(c1cccc2ccccc12)c1cccc2ccccc12`: inactive: -0.158%.
`CCOC(=O)Nc1cccc([As](=O)(O)O)c1`: the activity change, negative = inhibition is inactive: -3.01%.
